ASAP1 inh: inhibitors of human ASAP1 ArfGAP activity | Q9ULH1 | ASAP1-stimulated ARF1 GTP hydrolysis, GDP FP detection | inhibition, % at 16.5 µM | 360,000 compounds, 0.19% hits; in the data active = inhibition above about 25%
MC4R ag barr: agonists of human melanocortin 4 receptor (MC4R) beta-arrestin | activation, % at 8.9 µM | U2OS MC4R beta-arrestin complementation, luminescence; percent of melanotan II response, DMSO zero | 360,000 compounds, 0.98% hits | AID 540308;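 active = activation above a per-plate cutoff, the mean activation of sample wells on that plate plus 3 SD, cut at about 8% in these data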
Yeast UUG start: modulators of start codon recognition fidelity in yeast. S. cerevisiae UUG-firefly luciferase reporter, luminescence/redox ratio. activity score, % at 18.7 µM. 350,000 tested, 0.13% active;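 active = replicate mean at a twofold rise or more, about +100% in these data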;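 note: firefly luciferase made from a UUG start codon reports start codon fidelity; reporter light over untreated wells divided by growth signal over untreated wells; some hits fall short of that in this replicate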
NRP1-CendR mod: alters CendR peptide binding to human NRP-1; O14786; FAM-RPARPAR peptide binding to NRP-1, fluorescence polarization; inhibition, % at 25 µM; 360,000 compounds, 0.85% hits; AID 602438;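 active = inhibition or corrected inhibition above about 18%, plus a signal ratio from 0.5 to 1.5, limit read from the data, passing the limit was not always enough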
MC4R antagonist: blocks human MC4R cAMP signaling | P32245 | MC4R-expressing cells, MTII-stimulated cAMP, LANCE TR-FRET | inhibition, % at 6.5 µM | 360,000 compounds, 0.48% hits;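 active = inhibition above its plate's cutoff, the mean of tested wells on that plate plus 3 SD, cut at about 29% in these data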
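Assay system: human MC4R-expressing U2OS cells; reagent: Melanotan II stimulation of cells; dosing: 6.5 µM single dose; timing: compound 30 min, challenge 1 h, detection 1 h; signal: TR-FRET cAMP assay; replicates: one well per compound, no replicates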
ARFGAP1 inhibitor: inhibits rat ARF GTPase activating protein 1; Q62848; Arfgap1-stimulated ARF1 GTP hydrolysis, GDP FP detection; inhibition, % at 16.5 µM; 360,000 compounds, 0.26% hits; AID 651572;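 active = inhibition above a per-plate limit, mean inhibition of low control wells plus 3 SD, cut at about 25% in these data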
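Assay system: purified rat His6-Arfgap1 residues 1-136 (GAP domain); Reagent: human Δ17 ARF1 bound to GTP; Dosing: 16.5 µM single point, 1.26% DMSO; Times: GTP hydrolysis reaction 2 h at 25 °C; Signal: FP, GDP Alexa 633 tracer displaced from anti-GDP antibody, 620/688 nm; Measure: % inhibition from polarization.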
cAMP nonselect: nonselective cAMP signaling inhibitor, MC4R antagonist counter-screen | 1,600 compounds, 26% hits | shares compounds with MC4R antagonist | parental U2OS, forskolin cAMP, LANCE TR-FRET | inhibition, % at 6.5 µM;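 active = mean inhibition over triplicates above the low-control well mean plus 3 SD, set per campaign, cut at about 13% in these data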;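 also: signal is single emission at 671 nm which falls as cellular cAMP rises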
MC4R cAMP antag: human MC4R cAMP antagonism confirmation. shares compounds with MC4R antagonist. 1,600 compounds, 27% hits. MC4R-expressing cells, MTII-stimulated cAMP, TR-FRET. inhibition, % at 6.5 µM. AID 602195; in the data active = inhibition above about 29%
Each line names hits and unclear results; the compound was inactive in the other large screens (follow-up assays come after a bar, where they were run). A selection: hits, their analogues and other compounds. The true share with any hit is near 2.3%.

Nc1nnc(-c2ccc(Cl)cc2Cl)s1	MC4R antagonist 30.1 (no result: Yeast UUG start) | cAMP nonselect inactive | MC4R cAMP antag inactive
CC1=NOC(=O)/C1=C/c1ccc(O)c(Br)c1	none
CC1=NOC(=O)/C1=C/c1ccc(O)cc1	MC4R antagonist 34.9 (no result: Yeast UUG start) | cAMP nonselect inactive | MC4R cAMP antag inactive
CCNC(=O)C[C@H]1C=C[C@H](NS(=O)(=O)c2ccc(F)cc2)[C@@H](CO)O1	none (no result: ASAP1 inh, MC4R ag barr, NRP1-CendR mod, MC4R antagonist, ARFGAP1 inhibitor)
O=C(NCc1ccco1)/C(=C/c1ccc(C(F)(F)F)cc1)c1nc2ccccc2[nH]1	none (no result: Yeast UUG start)
O=S(=O)(/C(=C\c1ccc(C(F)(F)F)cc1)c1nc2ccccc2[nH]1)c1ccccc1	MC4R antagonist 32.5 (no result: ASAP1 inh, Yeast UUG start, ARFGAP1 inhibitor) | cAMP nonselect inactive | MC4R cAMP antag 34.9
Cc1noc(C)c1S(=O)(=O)Nc1ccc2c(c1)C(=O)N([C@H](C)CO)C[C@H](C)[C@H](CN(C)Cc1ccc(-c3ccccc3)cc1)O2	none (no result: ASAP1 inh, MC4R ag barr, NRP1-CendR mod, MC4R antagonist, ARFGAP1 inhibitor)
COc1ccc(C(C)=O)cc1Cn1c(=O)cc(C)[nH]c1=O	MC4R antagonist 29.8 (no result: Yeast UUG start) | cAMP nonselect inactive | MC4R cAMP antag inactive
CC(=O)Nc1ccc2c(c1)C(=O)N(C)[C@H]1CC[C@@H](CC(=O)Nc3cn(C)nc3C)O[C@@H]1CO2	none (no result: ASAP1 inh, MC4R ag barr, NRP1-CendR mod, MC4R antagonist, ARFGAP1 inhibitor)
CSCCC(NC(=O)c1ccc([N+](=O)[O-])cc1Cl)C(=O)OCC(=O)C12CC3CC(CC(C3)C1)C2 (centres undefined)	MC4R antagonist 33.1 | cAMP nonselect inactive | MC4R cAMP antag inactive
O=C(COC(=O)c1ccc([N+](=O)[O-])cc1Cl)NCc1ccco1	none
CSCCC(NC(=O)c1ccc([N+](=O)[O-])cc1Cl)C(=O)OCC(=O)N1CCN(C(C)=O)CC1 (centres undefined)	none
CSCCC(NC(=O)c1ccc([N+](=O)[O-])cc1Cl)C(=O)OC(C)C(=O)NCc1ccco1 (centres undefined)	MC4R antagonist 28.7 | cAMP nonselect inactive | MC4R cAMP antag inactive
CCCNC(=O)Nc1ccc2c(c1)C(=O)N(C)[C@H]1CC[C@H](CC(=O)O)O[C@H]1CO2	none (no result: ASAP1 inh, MC4R ag barr, NRP1-CendR mod, MC4R antagonist, ARFGAP1 inhibitor)
COc1ccc(S(=O)(=O)N[C@@H](C)C(=O)OCC(=O)Nc2cc3oc4ccccc4c3cc2OC)cc1	MC4R antagonist 35.5 | cAMP nonselect 23.3 | MC4R cAMP antag 38.6
Cc1ccc(S(=O)(=O)NCC(=O)NCC(=O)OCc2c(F)cccc2Cl)cc1	MC4R antagonist 32.9 | cAMP nonselect 27.1 | MC4R cAMP antag 40.0
Cc1ccc(S(=O)(=O)NCC(=O)OCC(=O)Nc2ccccc2OC(F)F)cc1	MC4R antagonist 33.4 (no result: Yeast UUG start) | cAMP nonselect 13.4 | MC4R cAMP antag 29.2
Cc1ccc(C(=O)NCC(=O)OCc2c(F)cccc2Cl)cc1	none (no result: Yeast UUG start)
Cc1ccc(S(=O)(=O)NCC(=O)OCC(=O)NCc2ccc(F)cc2)cc1	MC4R antagonist 34.3 (no result: Yeast UUG start) | cAMP nonselect 18.0 | MC4R cAMP antag inactive
COCC(=O)Nc1ccc2c(c1)[C@@H]1C[C@H](CC(=O)NCC3CC3)O[C@@H](CO)[C@@H]1O2	none (no result: ASAP1 inh, MC4R ag barr, NRP1-CendR mod, MC4R antagonist, ARFGAP1 inhibitor)
C[C@@H]1CN([C@H](C)CO)C(=O)c2cccc(NC(=O)c3cnccn3)c2O[C@H]1CN(C)CC1CCCCC1	none (no result: ASAP1 inh, MC4R ag barr, NRP1-CendR mod, MC4R antagonist, ARFGAP1 inhibitor)
COc1ccc(CN(C)C[C@@H]2OCCCC[C@@H](C)Oc3ccc(NC(=O)Nc4ccc(C(F)(F)F)cc4)cc3C(=O)N([C@@H](C)CO)C[C@H]2C)cc1	none (no result: ASAP1 inh, MC4R ag barr, NRP1-CendR mod, MC4R antagonist, ARFGAP1 inhibitor)
COc1cc2c(cc1NC(=O)COC(=O)CNS(=O)(=O)c1ccc(C)cc1)oc1ccccc12	MC4R antagonist 30.4 (no result: Yeast UUG start) | cAMP nonselect inactive | MC4R cAMP antag 40.8
CCOC(=O)C1=C(COC(=O)CNS(=O)(=O)c2ccc(NC(C)=O)cc2)NC(=O)NC1C (centres undefined)	none
CCOC(=O)C1=C(COC(=O)CNS(=O)(=O)c2ccc(C)c(C)c2)NC(=O)NC1C (centres undefined)	MC4R antagonist 30.1 | cAMP nonselect inactive | MC4R cAMP antag inactive
Cc1ccc(C=NNc2nc3c([nH]2)c(=O)n(C)c(=O)n3C)cc1	MC4R antagonist 43.1 | cAMP nonselect inactive | MC4R cAMP antag inactive
Cn1c(=O)c2[nH]c(NN=Cc3ccc(Br)cc3)nc2n(C)c1=O	none
COc1ccc(-c2csc(NC(=O)C3CC(=O)N(c4ccc5c(c4)OCCO5)C3)n2)cc1 (centres undefined)	none (no result: Yeast UUG start)
CC(=O)Nc1ccc(-c2csc(NC(=O)C3CC(=O)N(c4ccc5c(c4)OCCO5)C3)n2)cc1 (centres undefined)	MC4R antagonist 34.6 (no result: Yeast UUG start) | cAMP nonselect inactive | MC4R cAMP antag inactive
O=C(CSc1ccccn1)N1CCOCC1	MC4R antagonist 29.4 | cAMP nonselect inactive | MC4R cAMP antag inactive
O=C(CSc1nc2ccccc2n1CCc1ccccc1)N1CCOCC1	MC4R antagonist 32.6 (no result: Yeast UUG start) | cAMP nonselect inactive | MC4R cAMP antag inactive
C[C@H]1CN([C@@H](C)CO)C(=O)c2cccc(NC(=O)C3CCOCC3)c2O[C@H]1CN(C)Cc1ccc(C(=O)O)cc1	none (no result: ASAP1 inh, MC4R ag barr, NRP1-CendR mod, MC4R antagonist, ARFGAP1 inhibitor)
C[C@@H]1CN([C@H](C)CO)S(=O)(=O)c2ccc(C3=CCCCC3)cc2O[C@@H]1CN(C)C(=O)c1ccccc1	none (no result: ASAP1 inh, MC4R ag barr, NRP1-CendR mod, MC4R antagonist, ARFGAP1 inhibitor)

Screens as filed in PubChem.
